Results published in patent US20100227876A1 (priority 2009, published 2010).

What was measured:
male Sprague-Dawley rats = assay: Colorectal distension assay (CRD), visceral pain model, nociceptive threshold; assay type: in vivo, rat; settings: fentanyl 0.012 mg/kg; for mean M.P.E.: saline pretreatment, spiradoline 0.3 mg/kg or both SC
rats = settings: cited from earlier work

In the case of CN(C(=O)Cc1ccc(Cl)c(Cl)c1)C1CCC2(CCCO2)CC1N1CCCC1 (centres unmarked), the “mean M.P.E.” value (male Sprague-Dawley rats; 15-minute test) is reported as 22%, the “mean M.P.E.” value (male Sprague-Dawley rats; 30-minute test) is reported as 3% and the M.P.E. score (male Sprague-Dawley rats; β-FNA 8 mg/kg SC 24 hrs pretreatment, spiradoline 0.3 mg/kg or both, 15-minute test) is reported as 4%. For the same compound, the “change of ANC after n-BNI” value (rats; CWTF, prior results) was “reduced ANC”, the “change of ANC after β-FNA” value (rats; CWTF, prior results) was “without a significant change” and the “M.P.E. (maximal percent effect, antinociception)” value (rats; n-BNI 10 mg/kg SC 48 hrs pretreatment, F 0.018 mg/kg or Sp 1.0 mg/kg SC 15 min prior) was 13%. For the same compound, the “M.P.E. (maximal percent effect, antinociception)” value (rats; n-BNI 10 mg/kg SC 48 hrs pretreatment, F 0.018 mg/kg or Sp 1.0 mg/kg SC 15 min prior, listed as Sp) was 13 +/− 5%, the “M.P.E. (maximal percent effect, antinociception)” value (rats; saline pretreatment SC 24 hrs, F 0.018 mg/kg or Sp 1.0 mg/kg SC 15 min prior to testing) was 77% and the “M.P.E. (maximal percent effect, antinociception)” value (rats; saline pretreatment SC 24 hrs, F 0.018 mg/kg or Sp 1.0 mg/kg SC 15 min prior to testing, listed as Sp) was 77 +/− 8%. For the same compound, the “M.P.E. (maximal percent effect, antinociception)” value (rats; β-FNA 8 mg/kg SC 24 hrs pretreatment, F 0.018 mg/kg or Sp 1.0 mg/kg SC 15 min prior) was 67% and the “M.P.E. (maximal percent effect, antinociception)” value (rats; β-FNA 8 mg/kg SC 24 hrs pretreatment, F 0.018 mg/kg or Sp 1.0 mg/kg SC 15 min prior, listed as Sp) was 67 +/− 12%.

Read-outs that look alike come from different tables or passages of the source.
